Assay: Pharmacokinetics in NMRI mice
Details: IP, 10 mg kg^–1

With “(4-Amino-2-(cyclohexylamino)thiazol-5-yl)(2,6-difluorophenyl)methanone [Compound 16]” the “free blood concentrations relative to EC50/EC90” value was “did not reach the EC50 or EC90”.
